Assay results: US8354403B2, “Pyrrolidine derived beta 3 adrenergic receptor agonists” (Merck Sharp & Dohme Corp., priority 2009, dated 2013)

The chains behind the UniProt entries cited, without tags or fusion partners.
UniProt P13945, whole entry: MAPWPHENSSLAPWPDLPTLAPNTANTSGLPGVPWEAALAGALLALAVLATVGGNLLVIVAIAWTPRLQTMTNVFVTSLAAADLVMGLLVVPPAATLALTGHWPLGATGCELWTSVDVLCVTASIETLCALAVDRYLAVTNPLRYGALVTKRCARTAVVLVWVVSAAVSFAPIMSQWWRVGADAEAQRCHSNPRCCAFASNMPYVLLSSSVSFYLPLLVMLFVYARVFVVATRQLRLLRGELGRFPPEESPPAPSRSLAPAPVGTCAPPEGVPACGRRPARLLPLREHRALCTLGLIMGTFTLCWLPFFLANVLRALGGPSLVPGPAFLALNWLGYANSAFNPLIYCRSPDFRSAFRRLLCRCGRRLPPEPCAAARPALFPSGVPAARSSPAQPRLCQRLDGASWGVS

Target: human β3 adrenergic receptor (Homo sapiens, UniProt P13945)
Test: Beta-3 agonist in vitro functional assay: cAMP production (LANCE TR-FRET) in CHO cells stably transfected with the cloned β3 receptor
Format: cell-based
Details: read-out: Human β3 agonist functional activity; Table 6; cAMP, CHO cells

O=C(c1ccc(C[C@@H]2CC[C@H]([C@H](O)c3ccccc3)N2)cc1)N1C[C@@H]2[C@H](C1)[C@H]2Cn1nccn1
EC50: 10 to 99.9 nM

O=C(c1ccc(C[C@@H]2CC[C@H]([C@H](O)c3ccccc3)N2)cc1)N1C[C@@H]2[C@H](C1)[C@H]2c1c[nH]nn1
EC50: 1 to 9.9 nM

CC(C)n1nnc([C@H]2[C@@H]3CN(C(=O)c4ccc(C[C@@H]5CC[C@H]([C@H](O)c6ccccc6)N5)cc4)C[C@@H]32)n1
EC50: 1 to 9.9 nM

Cc1cnc([C@H]2[C@@H]3CN(C(=O)c4ccc(C[C@@H]5CC[C@H]([C@H](O)c6ccccc6)N5)cc4)C[C@@H]32)o1
EC50: 1 to 9.9 nM

CC([C@H]1[C@@H]2CN(C(=O)c3ccc(C[C@@H]4CC[C@H]([C@H](O)c5ccccc5)N4)cc3)C[C@@H]21)n1cnnn1 (some centres unmarked)
EC50: 10 to 99.9 nM
